Like-named read-outs stand apart in the source and are kept apart here.
Target: rat striatal A2A receptor (Rattus norvegicus, UniProt P30543)
Settings: one affinity state

Amino acid sequences for entries named in this document (tags omitted). A change or cut given only in a name is not applied to a line headed by its entry.
UniProt P30543, whole entry: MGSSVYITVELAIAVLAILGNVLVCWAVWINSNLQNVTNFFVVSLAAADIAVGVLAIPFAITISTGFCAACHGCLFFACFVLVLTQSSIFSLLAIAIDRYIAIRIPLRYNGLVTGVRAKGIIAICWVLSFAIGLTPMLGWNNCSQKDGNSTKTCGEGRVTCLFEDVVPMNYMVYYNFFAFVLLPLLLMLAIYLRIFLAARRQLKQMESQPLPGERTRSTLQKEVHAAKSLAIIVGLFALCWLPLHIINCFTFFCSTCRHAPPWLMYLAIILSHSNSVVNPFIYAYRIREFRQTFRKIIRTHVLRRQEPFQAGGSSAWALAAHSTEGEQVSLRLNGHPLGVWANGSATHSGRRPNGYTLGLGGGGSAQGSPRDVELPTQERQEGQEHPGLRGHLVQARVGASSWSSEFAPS

| Substance | Ki (pH5.5) [nM] | Ki (pH 7.4) [nM] |
| --- | --- | --- |
| phenylisopropyladenosine [S-PIA, reference compound] | 271 ± 4.9 | 1710 ± 423 |
| phenylisopropyladenosine [R-PIA, reference compound] | 21 ± 1.4 | 172 ± 21 |
